## AlphaSeq binding of Ab-95 light chain variants to a spike HR2 peptide

Data: MIT Lincoln Laboratory AlphaSeq set, Engelhart et al. 2022, doi:10.1038/s41597-022-01779-4, as distributed in FLAb.

All variants were tested on one target, the spike HR2 peptide PDVDLGDISGINAS (SARS-CoV-2).

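The starting antibody came from a phage panning campaign against this peptide. Library AAYL52 holds single substitutions and randomly drawn double and triple substitutions in the CDRs. AlphaSeq pools MATa yeast showing the antibodies with MATalpha yeast showing the peptide. After mating in shaken culture at 30 °C for 16 h, diploids were selected and their barcode pairs sequenced. Scores were corrected for input abundance and mapped to Kd with protein pairs of known affinity run in the same pool. Each pool was mated in three replicate cultures.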

Each scFv is VH, three GGGGS repeats, VL, as in the parent Ab-95, and differs from it in the CDRs of the light chain only.
VH: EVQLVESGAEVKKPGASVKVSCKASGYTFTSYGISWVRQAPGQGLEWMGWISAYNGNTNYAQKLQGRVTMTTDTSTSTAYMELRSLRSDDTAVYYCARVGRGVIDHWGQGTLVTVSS
VL: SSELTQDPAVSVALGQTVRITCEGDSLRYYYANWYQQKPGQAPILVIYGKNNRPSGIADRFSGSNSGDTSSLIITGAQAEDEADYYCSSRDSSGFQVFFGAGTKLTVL

The parent's light chain CDRs are EGDSLRYYYAN, GKNNRPS, SSRDSSGFQVF; each variant's own CDRs replace them letter for letter.
Affinities are written as log10 Kd with Kd in nM; a lower number is a better binder.
"nd" means that the variant was in the library but no mating with the target was seen in that replicate; the authors take this as a sign of poor binding, and no number exists.
In this assay the parent's reference entry averaged 2.31; its copy inside this library read 2.25.
Background: pairings of library AAYL52 with three empty control strains gave a value in 28% of cases (median 3.91, 5th percentile 2.90). Values in that range, when seen in few replicates, are hard to tell from nonspecific mating. Also given: how often the same scFv was detected with the empty control strains, with their mean in brackets.

CDR-L1 | CDR-L2 | CDR-L3 | log10 Kd, replicates | empty controls
EGDTLRHYYAN | GKNNTPS | SSRDSSGFQVF | 3.15 2.66 2.92 | 3/9 (3.79)
EGDSLRYYYAN | GKNNDPS | SSRISQGFQVF | 3.93 4.59 nd | 5/9 (4.30)
EGDSLRYYYAN | GVKNRPS | SSRDSSGFQVF | 4.03 3.63 nd | 3/9 (4.80)
EGDSLRYGYAN | GKNNRPS | SSPDSSGFQVF | 2.01 1.66 1.02 | 1/9 (4.15)
EGDILRYYYAN | GKNNRPS | SDRDSSGFQPF | 3.98 nd nd | 2/9 (3.71)
EGASLRYYYAN | GKNNRPS | SSRDSSGFDSF | 2.19 2.38 1.90 | 4/9 (3.60)
SGDSLRYYYAN | GKNNPPS | RSRDSSGFQVF | 4.12 3.54 nd | 2/9 (3.63)
EGDSLRYSYAN | GKNNYPS | SSRDSSGFQVI | 3.47 3.02 3.26 | 3/9 (4.46)
EGDSLRYYYFN | GKNLRPS | SSRDSSFFQVF | 4.40 nd nd | 4/9 (4.78)
EGDSLRYYYAN | GKNNRPS | SSRDSSGFSVW | 2.34 2.24 2.25 | 6/9 (4.12)
EGDSLRYYYAN | GKNNTDS | SSRDYSGFQVF | 3.91 nd 4.13 | 3/9 (4.01)
EGDSHRYYYAN | GKNNRPC | SSRDSSGFQNF | 5.23 nd nd | 1/9 (2.64)
EGDSLIYYYAN | GKNNRFT | SSRDSSGFQVF | 4.04 4.08 3.86 | 3/9 (4.07)
EGWSLRYGYAN | GKNNRPS | SSRDSSGMQVF | 1.22 1.15 0.47 | 5/9 (4.22)
EGDSLRYYYAN | EKNNRPS | SSYDSSRFQVF | nd nd nd | 1/9 (3.60)
EGDSLRYYYAN | EKNNRPS | SSNTSSGFQVF | nd 5.81 3.47 | 2/9 (3.91)
EGDKLRYEYAN | GKNNRPS | SSRDSSGFQVF | 2.50 2.46 3.44 | 3/9 (4.21)
EGDSLRMYYAM | GKNNRPS | HSRDSSGFQVF | nd 5.05 nd | 3/9 (4.50)
EGDSLRYYYAN | GKNHRPD | SSNDSSGFQVF | 2.46 2.76 2.70 | 3/9 (3.69)
EGDSLRWFYAN | GKPNRPS | SSRDSSGFQVF | nd nd nd | 0/9
EGDSLRYYYAN | GKNHRPS | SSRDGHGFQVF | 2.76 2.78 3.02 | 2/9 (3.63)
EGDSLRYIYAN | GKNNRPS | SSRDSAGFQDF | 4.25 4.51 3.08 | 0/9
EGDPLRYGYAN | GKNNRPS | SSRDDSGFQVF | 1.09 1.34 0.56 | 1/9 (4.71)
EGDSKRYYYAN | GKNNRPS | SSRDSSGRQVF | nd nd nd | 2/9 (4.27)
EGDQLRYPYAN | GKNNRVS | SSRDSSGFQVF | 2.18 2.34 1.87 | 3/9 (4.52)
EGDSLRQYYAN | GKNNRPS | SSRDSSLFQVF | 5.72 4.55 nd | 5/9 (4.19)
EGDSLRYYDAN | GKNNVPS | SSRDSSGYQVF | 1.19 0.91 0.42 | 4/9 (4.74)
EGDSLRYYYAN | GKNNRPS | SSRDFSGFHVF | 3.01 2.54 3.38 | 2/9 (4.30)
EEDSLRYYYAN | GKNNRPS | MSRDSIGFQVF | 2.88 nd 3.28 | 2/9 (4.59)
EGDSLRYYYAN | GDNNRPS | SSQDSSGFQVF | 2.02 2.11 1.99 | 2/9 (4.22)
EGDSLRYYYAN | GNNNRPS | SSRDSSGDQMF | 2.28 2.72 2.30 | 3/9 (3.25)
EGDSLRYYYAN | GKNNRPS | FSRCSSGPQVF | 1.97 2.13 1.76 | 1/9 (3.84)
EGDSVRYYYAN | GKNNRPS | SSRDSSGFQFF | 3.83 4.31 nd | 3/9 (3.64)
EGDSLRYYYAN | GTNNRPS | SSIDSSGPQVF | nd 5.00 nd | 4/9 (3.80)
EGWSLRYYYAN | GKNNDPS | SSRDSSGMQVF | 3.57 4.83 nd | 2/9 (4.62)
EGGSLEYYYAN | GKNNRPS | SLRDSSGFQVF | 3.30 2.97 3.34 | 4/9 (3.44)
EGDSLRYYYEN | CKNNRPS | SSRDASGFQVF | nd 5.38 3.67 | 3/9 (3.72)
EGDSLRYYYAN | GKWNRPS | SSLDSSGGQVF | nd nd 2.52 | 2/9 (4.06)
EGVSLRYYYAN | GKNNRPS | SSRVRSGFQVF | nd 2.19 4.10 | 3/9 (3.30)
EGDSLRYRYAN | GKTNRPS | SERDSSGFQVF | 3.18 3.42 2.90 | 2/9 (3.26)
EGDSLRAYYAN | GKNNRPS | SSRDSSGFQVS | 1.87 2.12 2.42 | 2/9 (3.93)
EGDSLRYYYAN | GKNNRPS | SMRDASGIQVF | 3.07 2.64 nd | 0/9

The last 2 entries again:

CDR-L1 | CDR-L2 | CDR-L3 | log10 Kd, replicates | empty controls
EGDSLRAYYAN | GKNNRPS | SSRDSSGFQVS | 1.87 2.12 2.42 | 2/9 (3.93)
EGDSLRYYYAN | GKNNRPS | SMRDASGIQVF | 3.07 2.64 nd | 0/9